Data: patent US20250228938A1, “THE COMBINATION OF MACROPHAGE-DIRECTED IMMUNOTHERAPY AND TARGETED AGENTS FOR TREATMENT OF CANCER” (Whitehead Institute for Biomedical Research, priority 2022, published 2025)

System: GFP+ MGH134-1 cells
Test: Long-term co-culture assay with primary human macrophages, GFP+ MGH134-1 cells
Format: cell-based
Conditions: TKI 1 uM, single agent or with anti-CD47 10 ug/mL
Description: Long-term co-culture of primary human macrophages was performed using GFP+ target cells. Cells were cultured in IMDM supplemented with 10% ultra-low IgG fetal bovine serum, 100 units/mL penicillin, 100 ug/mL streptomycin, and 292 ug/mL L-glutamine and 20 ng/mL human M-CSF. Purified anti-CD47 antibody clone B6H12 was added at a working concentration of 10 ug/mL. Targeted therapies were added at a final working concentration of 1.0 uM except as otherwise indicated. Cells were then co-cultured for 7-14 days with whole-well imaging of phase contrast and GFP channels performed every 4 hours using an Incucyte S3 system. Automated imaging analysis was performed using Incucyte Analysis Software. Images taken on day 6.5 was used as a standard reference time point for data comparison and statistical analysis. For dose-response experiments, sigmoidal dose-response curves were generated using Prism version 9.2.0 (GraphPad) to determine IC50 parameters.
Long-term co-culture assays were performed by measuring GFP+ area. Data was analyzed by comparing mean GFP+ area between relevant conditions using one-way ANOVA with Holm-Sidak multiple comparison test. Experiments were performed in two independent trials using a minimum of 6-8 donors except as otherwise indicated. IC50 values were calculated by fitting data to sigmoidal dose-response curve using Prism version 9.2.0 (Graphpad).

In the case of `COc1cc2ncnc(Nc3ccc(F)c(Cl)c3)c2cc1OCCCN1CCOCC1` [gefitinib], the “growth of GFP+ MGH134-1 cells (EGFR T790M)” value was “neither erlotinib or gefitinib inhibited cell growth as single agents nor in concert with CD47 blockade”.
